The values that follow come from patent EP1200406B1, “CYCLIC AMIDES AND IMIDES HAVING SELECTIVE ANTAGONIST ACTIVITY AT ALPHA-1D ADRENERGIC RECEPTOR” (RECORDATI INDUSTRIA CHIMICA E FARMACEUTICA S.p.a., priority 1999, dated 2001).

This test concerns the target T1, human recombinant α1a adrenoceptor (Homo sapiens, UniProt P35348).
T1 construct: expressed in transfected cells; host or cells: CHO cells (membranes)
T1 sequence (P35348 1-466): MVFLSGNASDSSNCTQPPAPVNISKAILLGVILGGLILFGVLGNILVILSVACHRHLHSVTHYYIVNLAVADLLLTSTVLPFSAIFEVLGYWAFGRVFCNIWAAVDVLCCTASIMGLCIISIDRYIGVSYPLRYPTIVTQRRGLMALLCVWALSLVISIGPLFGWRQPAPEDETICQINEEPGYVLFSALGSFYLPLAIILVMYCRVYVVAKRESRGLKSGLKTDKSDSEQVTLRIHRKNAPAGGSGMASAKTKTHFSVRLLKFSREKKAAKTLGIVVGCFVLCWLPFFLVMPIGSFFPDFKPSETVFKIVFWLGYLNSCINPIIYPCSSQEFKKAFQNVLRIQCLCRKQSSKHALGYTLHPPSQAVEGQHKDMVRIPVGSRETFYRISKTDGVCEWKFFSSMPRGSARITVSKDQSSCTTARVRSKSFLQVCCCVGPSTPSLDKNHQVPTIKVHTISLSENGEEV
The test can be described thus: Radioligand binding ([3H]prazosin) on membranes of CHO cells expressing cloned α1a adrenoceptor. Particulars: human cloned receptor, CHO cell membranes, 0.2 nM [3H]prazosin; read-out: Affinity (Ki) α1a. As to the method: The determination of affinity for cloned subtypes of human α1 adrenergic receptors was performed in membranes from CHO cells (chinese hamster ovary cells) transfected by electroporation with DNA expressing the genes encoding each α1-adrenoceptor subtype, namely α1a, α1b and α1d.. Cloning and stable expression of the human α1-adrenoceptor gene were performed as previously described (Testa et al., Pharmacol. Comm. 6, 79-86 (1995)). CHO cell membranes were incubated in […] Tris pH 7.4 with 0.2 nM [^3H]prazosin, in a final volume of 1.02 ml for 30 minutes at 25°C, in the absence or presence of competing drugs (1 pM-10 µM). Non-specific binding was determined in the presence of 10 µM phentolamine. Incubation was stopped by addition of ice-cold Tris buffer and rapid filtration through 0.2% polyethyleneimine pretreated Schleicher & Schuell GF52 filters. […] The HeLa cells were grown as monolayers in Dulbecco's modified Eagle's medium (DMEM), supplemented with 10% foetal calf serum and gentamicin (100 µg/ml), 5% CO2, at 37°C. […] The inhibition of specific binding of the radioligands by the drugs was analysed to estimate the IC50 value by using the non-linear curve-fitting programme Allfit (De Lean et al., Am. J. Physiol. 235, E97-E102 (1978)). […] Data were expressed as mean of Ki.

In the case of `COc1ccccc1N1CCN(CCN2C(=O)CC3(CCCC3)CC2=O)CC1` [BMY-7378, reference compound], the Ki came out at 381 nM.
